In the test the target is human CD3 protein (KACTUS) (human). The experiment in a line: Fortebio BLI, antibody captured on AHC chip, human CD3 protein as analyte.

As a reminder, the Kd is the free concentration of one partner at which half of the binding sites on the other are occupied at equilibrium, for simple one-to-one binding. Low values mean a tighter complex, high ones a looser complex. What is called koff is the first-order rate constant of dissociation. A lower koff goes with a long-lived complex. For orientation: kon means a measure of how fast the partners come together. The substance chimeric anti-CD3 antibody SP34 (chi) registered a Kd of 5.46 nM, a koff of 0.00274 s⁻¹ and an on-rate (kon) of 501000 M⁻¹ s⁻¹.

Values taken from US20260085114A1.
